From EP4772192A1 (Suzhou Pro-Heal Pharmaceuticals Technology Co., Ltd., dated 2026)

B1: anti-IGF-1R antibody AB6 (antibody, V domains shown)
VH: EVQLVQSGGGLVKPGGSLRLSCAASGFTFSSFAMHWVRQAPGKGLEWISVIDTRGATYYADSVKGRFTISRDNAKNSLYLQMNSLRAEDTAVYYCARLGNFYYGMDVWGQGTTVTVSS
VL: EIVLTQSPGTLSVSPGERATLSCRASQSIGSSLHWYQQKPGQAPRLLIKYASQSLSGIPDRFSGSGSGTDFTLTISRLEPEDFAVYYCHQSSRLPHTFGQGTKVEIK
B2: anti-IGF-1R antibody AB4 (antibody, V domains shown)
VH: EVQLVQSGAEVKKPGSSVKVSCKASGGTFSSYAISWVRQAPGQGLEWMGGIIPIFGTANYAQKFQGRVTITADKSTSTAYMELSSLRSEDTAVYYCARAPLRFLEWSTQDHYYYYYMDVWGKGTTVTVSS
VL: SSELTQDPAVSVALGQTVRITCQGDSLRSYYATWYQQKPGQAPILVIYGENKRPSGIPDRFSGSSSGNTASLTITGAQAEDEADYYCKSRDGSGQHLVFGGGTKLTVL
B3: anti-IGF-1R antibody AB10 (antibody, V domains shown)
VH: DVQLQESGPELMKPSQIVSLTCKLSGYSVTGMHWNWIRQVSESKLEWIGYISSGSTDYNPSLKSRISITSETSKNQLFLQLNIVTTEDIATYYCARGSVEPYTHWGQGTLVTVSA
VL: QIVLTQSPAIMSRVVGEKVTMTCSASSHWHSYMHWYQQKPGSSPSLYIYDTINLMTGVPARFSGSRSGTSYSLTIVSMEREDAATYYCQQITGYPSVAEFGAGTKLEIK
B4: anti-IGF-1R antibody AB2 (antibody, V domains shown)
VH: EVQLLESGGGLVQPGGSLRLSCTASGFTFSSYAMNWVRQAPGKGLEWVSAISGSGGTTFYADSVKGRFTISRDNSRTTLYLQMNSLRAEDTAVYYCAKDLGWSDSYYYYYGMDVWGQGTTVTVSS
VL: DIQMTQFPSSLSASVGDRVTITCRASQGIRNDLGWYQQKPGKAPKRLIYAASRLHRGVPSRFSGSGSGTEFTLTISSLQPEDFATYYCLQHNSYPCSFGQGTKLEIK
B5: anti-IGF-1R antibody AB12 (antibody, V domains shown)
VH: EVQLLESGGGLVQPGGSLRLSCAASGFTFSIYRMQWVRQAPGKGLEWVSGISPSGGTTWYADSVKGRFTISRDNSKNTLYLQMNSLRAEDTAVYYCARWSGGSGYAFDIWGQGTMVTVSS
VL: DIQMTQSPLSLSASVGDRVTITCQASRDIRNYLNWYQQKPGKAPKLLIYDASSLQTGVPSRFGGSGSGTDFSFTIGSLQPEDIATYYCQQFDSLPHTFGQGTKLEIK
B6: anti-IGF-1R antibody AB8 (antibody)
chain 1: QVQLVQSGAEVVKPGASVKLSCKASGYTFTSYWMHWVKQRPGQGLEWIGEINPSNGRTNYNQKFQGKATLTVDKSSSTAYMQLSSLTSEDSAVYYFARGRPDYYGSSKWYFDVWGQGTTVTVSS
chain 2: DVVMTQTPLSLPVSLGDPASISCRSSQSIVHSNVNTYLEWYLQKPGQSPRLLIYKVSNRFSGVPDRFSGSGAGTDFTLRISRVEAEDLGIYYCFQGSHVPPTFGGGTKLEIK
B7: anti-IGF-1R antibody AB9 (antibody, V domains shown)
VH: QVQLQESGPGLVKPSGTLSLTCAVSGGSISSSNWWSWVRQPPGKGLEWIGEIYHSGSTNYNPSLKSRVTISVDKSKNQFSLKLSSVTAADTAVYYCARWTGRTDAFDIWGQGTMVTVSS
VL: not shown
B8: anti-IGF-1R antibody AB1 (antibody, V domains shown)
VH: QVQLQESGPGLVKPPGTLSLTCALSGYSVTGMHWGWVRQPPGKGLEWIGYISSGSTDYNPSLKSRVTISSDTSKNQLSLKLSSVTAADTAVYYCARGSVEPYTHWGQGTLVTVSS
VL: EIVLTQSPATLSLSPGERATLSCSASSHWHSYMHWYQQKPGQAPRLLIYDTINLMTGIPARFSGSRSGTDYTLTISSLEPEDAAVYYCQQITGYPSVAEFGQGTKLEIK
B9: anti-IGF-1R antibody AB11 (antibody, V domains shown)
VH: QVQLQESGGGVVQPGRSLRLSCSASGFTFSDYYMYWVRQAPGKGLEWVAYITNYGGSTYYPDTVKGRFTISRDNAKNTLFLQMDSLRPEDTGVYFCARQSNYDYDGWFAYWGQGTPVTVSS
VL: DIQLTQSPSSLSASVGDRVTITCKASQEVGTAVAWYQQKPGKAPKLLIYWASTRHTGVPSRFSGSGSGTDFTFTISSLQPEDIATYFCQQYSNYPLTFGQGTKVEIK

What follows are binders tested against T1, human IGF-1R (insulin-like growth factor 1 receptor), stably over-expressed on cells (human, UniProt P08069 31-1367) (assay: cell-based or functional assay).

IC50 of inhibition of proliferation of 3T3 / IGF-1R cells (CCK8) [nM] | Binder
220 | B1
89.1 | B2
16.6 | B3
133 | B4
20.4 | B5
7.6 | B6
61.6 | B7
8.25 | B8
9.11 | B9

Each binder was assayed against T1, human IGF-1R (insulin-like growth …) (assay: FACS blocking on HEK293T / human IGF-1R cells; competitor biotinylated human IGF-1).

IC50 [nM] | Binder
6.52 | B1
1.03 | B2
5.31 | B3
4.32 | B4
2.52 | B5
0.97 | B6
4.27 | B7
1.72 | B8
3.72 | B9

The binders below were run against T1, human IGF-1R (insulin-like growth …) (assay: flow cytometry on HEK293T cells stably over-expressing human IGF-1R; table head calls the EC50 equivalent to KD).

EC50 [nM] | Binder
2.29 | B1
0.57 | B2
3.18 | B3
2.52 | B4
1.21 | B5
0.21 | B6
1.76 | B7
0.97 | B8
1.62 | B9
